Measured values from US20130310371A1 (priority 2012, published 2013).
Where two headings read alike, the source gives them in different places.

Tests used:
[1] = tested on: male albino rats (Sprague Dawley)
rat = assay: Randall Selitto test in rats (Carrageenin-induced inflammatory pain); type: in vivo

`CN(C)[C@]1(c2ccccc2)CC[C@]2(CC1)OCCc1c3cc(F)ccc3[nH]c12` was tested, and the “% MPE (Maximum possible effect), single administration” value (“% MPE (Maximum possible effect)” below) ([1]; 0.0046 mg/kg i.v., 30 min. post administration) was 12.2 ± 2.69 % MPE, the “% MPE (Maximum possible effect)” value ([1]; 0.0046 mg/kg i.v., 60 min. post administration) was 10.6 ± 3.51 % MPE and the “% MPE (Maximum possible effect)” value ([1]; 0.0046 mg/kg i.v., 90 min. post administration) was 2.88 ± 2.27 % MPE. For the same compound, the “% MPE (Maximum possible effect)” value ([1]; 0.0068 mg/kg i.v., 30 min. post administration) was 26.0 ± 5.35 % MPE, the “% MPE (Maximum possible effect)” value ([1]; 0.0068 mg/kg i.v., 60 min. post administration) was 12.2 ± 2.56 % MPE and the “% MPE (Maximum possible effect)” value ([1]; 0.0068 mg/kg i.v., 90 min. post administration) was 4.64 ± 1.14 % MPE. The “% MPE (Maximum possible effect)” value ([1]; 0.01 mg/kg i.v., 30 min. post administration) was 43.2 ± 2.61 % MPE, the “% MPE (Maximum possible effect)” value ([1]; 0.01 mg/kg i.v., 60 min. post administration) was 34.1 ± 4.88 % MPE and the “% MPE (Maximum possible effect)” value ([1]; 0.01 mg/kg i.v., 90 min. post administration) was 7.7 ± 2.23 % MPE. For the same compound, the “timepoint of peak effect p. appl.” value (rat; applied alone, first ingredient i.v., second ingredient i.p.) was 15 min and the “ED50 (95% CI), applied alone” value (rat; i.v., 15 min p. appl. (peak effect)) was 3.31 (3.06-3.56) μg/kg.
